This assay concerns Hepatitis C virus replicon (1b) in Clone A cells. Nature of the assay: HCV replicon ELISA in Clone A cells (Huh-7 derived). The format is cell-based. The settings on record: 3 days. The procedure:
The ability of the compounds of the present invention to inhibit Hepatitis C virus replicon constitutively expressed in a human liver cell line was established by the following experimental procedure:
Clone A cells (licensed from Apath, LLC) are derived from Huh-7 cells (human hepatoma cell line) and constitutively express the HCV replication proteins with concomitant amplification the HCV replicon (1b) genome. Cells are maintained and passaged in DMEM/10% FCS/1 mg/ml G418 (Geneticin from Gibco #11811-023; other media components as described below in “Elisa media”). Care is taken to maintain cell monolayers at a subeonfluent state by 1:3 or 1:4 passages every 3-4 days. The replicon is extremely sensitive to the cellular metabolism/proliferation state and replicon copy number will rapidly decline in confluent monolayers (resting cells). Under ideal conditions each cell has, on average, 1000 copies of the HCV replicon genome.
10 μl of compounds (in DMSO) are added to column 3 of the mother plate. 5 μl of DMSO are added to the remaining columns. Mother plates are set aside until ready for serial dilution to be performed.
Prepare cell plates (daughter plates) by adding 52 μl of Elisa media to each well.
In Mother plates, serially transfer 50 μl/well from column 3 through column 12. […]
Read plates with optical density (O.D.) 450 filter. […]

Experimental findings from US20070276030A1, “Pyranobenzothiophene derivatives to treat infection with hepatitis c virus” (priority 2003, published 2007) are described below.

For the substance “Interferon-a2: reference compound of the HCV replicon ELISA assay”, the “IC50 in replicon ELISA (reference compound)” value is on record as 4-30 U/ml.
